Assay results from paper PMC10402266, “Reaction hijacking inhibition of Plasmodium falciparum asparagine tRNA synthetase” (Research Square, 2023).

Target: T1, HsAsnRS (human asparaginyl tRNA synthetase) (Homo sapiens, UniProt O43776)
T1 construct: gene NARS1; recombinant full-length HsAsnRS
T1 sequence (O43776 1-548): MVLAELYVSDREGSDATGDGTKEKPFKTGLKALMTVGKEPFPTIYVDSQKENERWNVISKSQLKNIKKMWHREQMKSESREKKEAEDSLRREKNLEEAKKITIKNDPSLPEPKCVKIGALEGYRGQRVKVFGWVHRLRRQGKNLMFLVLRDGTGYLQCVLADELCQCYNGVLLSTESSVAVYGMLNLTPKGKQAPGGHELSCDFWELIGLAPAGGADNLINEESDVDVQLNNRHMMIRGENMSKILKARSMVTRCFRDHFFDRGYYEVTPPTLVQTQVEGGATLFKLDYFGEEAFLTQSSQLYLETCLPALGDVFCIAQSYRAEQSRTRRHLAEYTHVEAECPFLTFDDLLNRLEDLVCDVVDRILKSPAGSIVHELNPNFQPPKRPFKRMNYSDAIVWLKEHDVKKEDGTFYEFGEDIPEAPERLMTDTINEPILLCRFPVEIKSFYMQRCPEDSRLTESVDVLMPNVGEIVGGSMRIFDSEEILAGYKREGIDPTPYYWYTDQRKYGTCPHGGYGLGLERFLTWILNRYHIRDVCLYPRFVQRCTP
Assay: ATP consumption assay of recombinant enzyme
Type: biochemical

For `Nc1ncnc2c1ncn2[C@@H]1O[C@H](COS(N)(=O)=O)[C@@H](O)[C@H]1O` [AMS, adenosine 5’-sulfamate], which IC50 is on record?
The IC50 was 25 µM.
